The values that follow come from ChEMBL document CHEMBL1141149, “Novel fluorinated prodrugs for activation by carboxypeptidase G2 showing good in vivo antitumor activity in gene-directed enzyme prodrug therapy” (J Med Chem, 2005).

The nature of data set [1]: Cytotoxicity aganist MDA MB361 cell line MDA MB 361 expressing carboxypeptidase G2 done for 1 hr with compound dissolved in DMSO.
Data set [2] is described as follows: Ratio of IC50 of LacZ cell line to CPG2-expressing cell line. Format: functional, Homo sapiens. In short, it runs like this: (§1)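 Selectivity ratio: IC50 in β-gal (LacZ) control MDA MB 361 cells divided by IC50 in CPG2- or stCPG2(Q)3-expressing cells, both from 1 h + 20 h exposure, 5-day regrowth SRB assay.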
Data set [3] can be described thus: Ratio of IC50 of LacZ cell line to stCPG2(Q)3-expressing cell line. The class given is functional, Homo sapiens. In short, it runs like this:
as §1

Data set [4] is described as follows: Cytotoxicity against MDA MB361 cell line MDA MB 361 expressing beta-galactosidase done for 1 h with compound dissolved in DMSO.
Data set [5] in a line: Cytotoxicity aganist MDA MB361 cell line MDA MB 361 expressing stCPG2(Q)3 done for 1 hr with compound dissolved in DMSO.
Data set [6] is described as follows: Chemical half life period as substrates of CPG2 was determined. The class given is ADME. In short, it runs like this:
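Compounds diluted from 10 mM DMSO stocks to 100 μM final in CPG2 assay buffer (100 mM Tris-HCl pH 7.3, 260 μM ZnCl2), no enzyme. Remaining parent measured over time by repeat isocratic reverse-phase HPLC injections (10 mM ammonium acetate pH 5.0/methanol), UV at λmax. Half-life from one-phase exponential decay fit (max 1, min 0).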

For the molecule `O=C(O)c1cc(F)c(N(CCCl)CCCl)c(F)c1`, the IC50 in data set [1] was determined as 22 µM; in data set [4], 23.8 µM; in data set [5], 25.9 µM. Further, the Differential in data set [2] and in data set [3] was 1 throughout. Further, the T1/2 in data set [6] amounted to 91 min.

`O=C(O)c1cc(F)c(N(CCBr)CCBr)c(F)c1F`: the IC50 in data set [1] worked out at 35.1 µM; in data set [4], 44.9 µM; in data set [5], 30 µM. For the same molecule, the Differential in data set [2] is 1; in data set [3], 1.5. Moreover, in data set [6], the T1/2 worked out at 8.9 min.

Turning to `O=C(O)c1cc(F)c(N(CCCl)CCCl)c(F)c1F`, the IC50 in data set [1] turned out to be 57.9 µM; in data set [4] it was 47.6 µM; in data set [5], 57.8 µM. Moreover, the Differential in data set [2] and in data set [3] was 1 throughout. The same molecule registered a T1/2 in data set [6] of 360 min.

`O=C(O)c1cc(F)c(N(CCBr)CCBr)c(F)c1`: the IC50 in data set [1] was found to be 20.6 µM; in data set [4], 23.4 µM; in data set [5] it was 21.1 µM. Further, the Differential in data set [2] and in data set [3] was 1 in each case. The molecule further yielded a T1/2 in data set [6] of 2.5 min.

For `O=C(O)c1cc(F)c(N(CCI)CCI)c(F)c1F`, the results for the IC50 in data set [1], in data set [4] and in data set [5] were 34.4 µM, 29.6 µM and 24.7 µM, respectively. The Differential in data set [2] and in data set [3] was 1 each time. Further, the T1/2 in data set [6] was 13.4 min.

In the case of `O=C(O)c1cc(F)c(N(CCI)CCI)c(F)c1`, the IC50 stood at 11.9 µM in data set [1], 6 µM in data set [4] and 12.7 µM in data set [5]. The Differential amounted to 1 in data set [2] and 0.5 in data set [3]. The molecule also registered a T1/2 in data set [6] of 4.2 min.

Consider `O=C(O)c1c(F)c(F)c(N(CCCl)CCCl)c(F)c1F`, for which the Differential in data set [2] and in data set [3] was 1 in each case. The molecule further had a T1/2 in data set [6] of 1360 min.

As for `O=C(O)c1c(F)c(F)c(N(CCI)CCI)c(F)c1F`, the half-maximal inhibitory concentration (IC50) worked out at 66.7 µM in data set [1], 57.7 µM in data set [4] and 60.5 µM in data set [5]. The Differential in data set [2] and in data set [3] was 1 in each case. In addition, the T1/2 in data set [6] came out at 35 min.

One may read the IC50 as the concentration that gives 50% inhibition.
